Data: ChEMBL document CHEMBL1126680, “Structure-activity relationships of 8-styrylxanthines as A2-selective adenosine antagonists” (J Med Chem, 1993)

Protein sequences, listed by entry. Tags and fused reporters are not part of them. Lines headed by an entry give the natural chain unless they say otherwise; changes in a name come on top.
UniProt P29276: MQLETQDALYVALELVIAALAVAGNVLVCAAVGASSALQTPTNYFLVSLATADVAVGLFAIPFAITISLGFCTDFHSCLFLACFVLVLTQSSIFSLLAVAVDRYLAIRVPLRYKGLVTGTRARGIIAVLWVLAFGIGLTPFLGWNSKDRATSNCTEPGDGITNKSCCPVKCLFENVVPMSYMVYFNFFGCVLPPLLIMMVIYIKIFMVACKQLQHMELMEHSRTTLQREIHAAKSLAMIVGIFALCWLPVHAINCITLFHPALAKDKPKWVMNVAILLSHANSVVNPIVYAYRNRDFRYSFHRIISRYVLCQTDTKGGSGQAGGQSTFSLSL
UniProt P30543: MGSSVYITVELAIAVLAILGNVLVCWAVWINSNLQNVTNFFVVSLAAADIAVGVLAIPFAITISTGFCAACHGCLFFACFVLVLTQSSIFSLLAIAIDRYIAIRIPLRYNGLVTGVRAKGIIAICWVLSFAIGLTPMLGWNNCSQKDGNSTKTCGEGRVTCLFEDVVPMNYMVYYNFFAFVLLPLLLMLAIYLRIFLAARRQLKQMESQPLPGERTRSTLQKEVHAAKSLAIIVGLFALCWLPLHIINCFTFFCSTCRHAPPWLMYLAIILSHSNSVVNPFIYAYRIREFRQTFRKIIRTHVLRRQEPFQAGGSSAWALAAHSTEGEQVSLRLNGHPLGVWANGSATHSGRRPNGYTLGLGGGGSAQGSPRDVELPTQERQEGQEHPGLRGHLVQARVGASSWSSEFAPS

Target: Adenosine A2 receptor (Rattus norvegicus, UniProt P29276+P30543)
Assay: Binding affinity against adenosine A2 receptor in rat brain using [3H]- CGS 21680 as radioligand
Assay type: tissue-based

Ki [nM]	SMILES
61.3	CCCn1c(=O)c2c(nc(/C=C/c3cccc(Cl)c3)n2C)n(CCC)c1=O
94	Cn1c(=O)c2c(nc(/C=C/c3ccccc3)n2C)n(C)c1=O
81	CCn1c(=O)c2c(nc(/C=C/c3cc(OC)c(OC)c(OC)c3)n2C)n(CC)c1=O
